# Earlier results as cited in article PMC11111636 (EJNMMI Radiopharmacy and Chemistry, 2024).
# Chains of the proteins cited; added tags and fusions are not shown. Lines headed by an entry give the natural chain unless they say otherwise; changes in a name come on top.
# UniProt P30874: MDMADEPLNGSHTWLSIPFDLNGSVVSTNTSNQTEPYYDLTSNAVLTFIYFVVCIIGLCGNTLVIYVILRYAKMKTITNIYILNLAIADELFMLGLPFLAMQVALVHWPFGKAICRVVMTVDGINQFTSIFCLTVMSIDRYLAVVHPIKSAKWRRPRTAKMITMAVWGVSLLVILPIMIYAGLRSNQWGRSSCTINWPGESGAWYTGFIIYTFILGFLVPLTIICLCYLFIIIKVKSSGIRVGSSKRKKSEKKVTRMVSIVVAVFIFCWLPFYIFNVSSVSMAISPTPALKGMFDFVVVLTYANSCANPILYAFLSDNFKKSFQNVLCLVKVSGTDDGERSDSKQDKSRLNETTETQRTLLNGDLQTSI
# Target: T1, SSTR2 (Homo sapiens, UniProt P30874)
# T1 construct: expressed in transfected cells; host or cells: U2OS (human osteosarcoma) cells
# Set-up: method as in Santini et al.
# Settings: ref Santini et al.; cited from earlier work
substance,measurement,value
Tyr^3-octreotate,IC50,20.4 nM
